Results as given in patent US20170202973A1 (GENENTECH, INC., priority 2009, published 2017).

Tests used:
[1] = test system: brain metastases from HER2 overexpressing breast cancer; conditions: HER2-positive disease, treated with trastuzumab after the diagnosis of brain metastasis; cited from earlier work
[2] = test system: HER2-positive metastatic breast cancer; conditions: INV, all treated patients, initial analysis

Row | Substance | median survival [1] | PFS (months) median [2]
1 | Trastuzumab: recombinant DNA-derived, IgG1 kappa, humanized monoclonal anti-HER2 antibody (CAS 180288-69-1) | 11.9 months | –
2 | trastuzumab-MCC-DM1 [T-DM1] | – | 5.5 months
